{
  "sequences": {"note": "Protein sequences, listed by entry. Tags and fused reporters are not part of them.", "UniProt P41143, whole entry, looked up": "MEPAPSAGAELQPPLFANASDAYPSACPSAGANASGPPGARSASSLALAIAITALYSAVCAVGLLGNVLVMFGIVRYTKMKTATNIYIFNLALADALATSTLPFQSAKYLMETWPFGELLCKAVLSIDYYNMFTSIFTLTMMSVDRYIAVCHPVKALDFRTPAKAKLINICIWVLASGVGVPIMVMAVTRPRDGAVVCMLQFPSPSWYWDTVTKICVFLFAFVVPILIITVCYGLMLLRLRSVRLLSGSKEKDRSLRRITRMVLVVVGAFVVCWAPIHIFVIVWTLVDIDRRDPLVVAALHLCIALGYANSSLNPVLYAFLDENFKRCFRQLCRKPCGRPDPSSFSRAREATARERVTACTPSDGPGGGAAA"},
  "source": "ChEMBL document CHEMBL1138152",
  "about": "“Design and synthesis of novel hydrazide-linked bifunctional peptides as delta/mu opioid receptor agonists and CCK-1/CCK-2 receptor antagonists” (J Med Chem, 2006)",
  "molecular_target": "Delta-type opioid receptor (Homo sapiens, UniProt P41143)",
  "test": "Inhibition of [35S]GTP-gamma-S binding to human delta opioid receptor expressed in CHO cells",
  "format": "functional, cell-based",
  "how_it_was_run": "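CHO-expressed receptor membranes (10 µg) in 50 mM HEPES pH 7.4 with EDTA, 5 mM MgCl2, 30 µM GDP, DTT, 100 mM NaCl, PMSF, BSA and 0.1 nM [35S]GTPγS. Test drug at various concentrations, duplicate or triplicate, 90 min at 30 °C. Nonspecific binding with 10 µM GTPγS.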",
  "data": [
    {"compound": "C[C@@H](NC(=O)[C@@H](N)Cc1ccc(O)cc1)C(=O)NCC(=O)N[C@@H](Cc1ccccc1)C(=O)NNC(=O)[C@H](Cc1ccccc1)NC(=O)CNC(=O)[C@@H](C)NC(=O)[C@@H](N)Cc1ccc(O)cc1", "values": [
      {"measurement": "Emax", "value": 83, "unit": "%"}
    ]}
  ]
}
